Data taken from article PMC10508484, “Development and application of a PBPK modeling strategy to support antimalarial drug development” (CPT: Pharmacometrics & Systems Pharmacology, 2023).

Protein sequences, listed by entry. Tags and fused reporters are not part of them.
UniProt P10635, whole entry: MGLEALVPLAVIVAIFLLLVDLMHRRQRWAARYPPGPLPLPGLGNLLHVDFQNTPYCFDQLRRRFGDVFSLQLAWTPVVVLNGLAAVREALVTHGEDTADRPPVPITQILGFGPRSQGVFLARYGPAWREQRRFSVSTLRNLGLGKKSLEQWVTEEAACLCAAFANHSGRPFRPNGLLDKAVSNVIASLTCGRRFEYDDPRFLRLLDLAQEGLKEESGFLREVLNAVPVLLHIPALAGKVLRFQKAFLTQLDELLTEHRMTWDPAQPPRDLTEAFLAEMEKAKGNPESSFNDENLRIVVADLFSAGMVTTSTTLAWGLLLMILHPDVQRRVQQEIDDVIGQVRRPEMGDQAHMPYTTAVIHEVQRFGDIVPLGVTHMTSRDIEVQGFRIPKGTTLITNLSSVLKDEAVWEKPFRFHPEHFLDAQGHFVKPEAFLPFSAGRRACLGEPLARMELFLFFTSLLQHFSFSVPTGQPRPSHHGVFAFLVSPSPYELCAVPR

What was measured:
[1] = test system: MAO; conditions: fraction metabolised used in the PBPK model
[2] = biological target: CYP2D6 (Homo sapiens, UniProt P10635); experiment: Metabolism by CYP2D6 (CLint, fm)

For `COc1cc(NC(C)CCCN)c2ncccc2c1` (stereo not drawn) [Primaquine, primaquine], the fmMAO [1] was 89%, the fmCYP2D6 ([2]; fraction metabolised used in the PBPK model) was 11% and the “CLint CYP2D6” value ([2]; retrograde calculations) was 0.496 µL/min/pmol.
